PMC7284125, “Identification of annotated bioactive molecules that impair motility of the blood fluke Schistosoma mansoni” (International Journal for Parasitology: Drugs and Drug …, 2020)

Amino acid sequences for entries named in this document (tags omitted).
UniProt G4V5G4, entry or part of it: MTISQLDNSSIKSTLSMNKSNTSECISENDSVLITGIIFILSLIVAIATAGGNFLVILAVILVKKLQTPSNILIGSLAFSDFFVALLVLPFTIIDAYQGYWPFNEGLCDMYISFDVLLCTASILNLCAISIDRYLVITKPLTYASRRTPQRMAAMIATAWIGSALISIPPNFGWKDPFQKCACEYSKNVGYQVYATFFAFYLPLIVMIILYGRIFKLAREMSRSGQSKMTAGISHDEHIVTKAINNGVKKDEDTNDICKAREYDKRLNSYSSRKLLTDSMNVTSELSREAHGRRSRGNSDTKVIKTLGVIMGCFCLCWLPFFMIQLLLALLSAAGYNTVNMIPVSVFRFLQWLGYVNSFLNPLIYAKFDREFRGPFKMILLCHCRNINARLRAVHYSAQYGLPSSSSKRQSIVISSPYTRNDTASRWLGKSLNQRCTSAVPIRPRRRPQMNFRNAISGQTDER
UniProt G4LUJ1, entry or part of it: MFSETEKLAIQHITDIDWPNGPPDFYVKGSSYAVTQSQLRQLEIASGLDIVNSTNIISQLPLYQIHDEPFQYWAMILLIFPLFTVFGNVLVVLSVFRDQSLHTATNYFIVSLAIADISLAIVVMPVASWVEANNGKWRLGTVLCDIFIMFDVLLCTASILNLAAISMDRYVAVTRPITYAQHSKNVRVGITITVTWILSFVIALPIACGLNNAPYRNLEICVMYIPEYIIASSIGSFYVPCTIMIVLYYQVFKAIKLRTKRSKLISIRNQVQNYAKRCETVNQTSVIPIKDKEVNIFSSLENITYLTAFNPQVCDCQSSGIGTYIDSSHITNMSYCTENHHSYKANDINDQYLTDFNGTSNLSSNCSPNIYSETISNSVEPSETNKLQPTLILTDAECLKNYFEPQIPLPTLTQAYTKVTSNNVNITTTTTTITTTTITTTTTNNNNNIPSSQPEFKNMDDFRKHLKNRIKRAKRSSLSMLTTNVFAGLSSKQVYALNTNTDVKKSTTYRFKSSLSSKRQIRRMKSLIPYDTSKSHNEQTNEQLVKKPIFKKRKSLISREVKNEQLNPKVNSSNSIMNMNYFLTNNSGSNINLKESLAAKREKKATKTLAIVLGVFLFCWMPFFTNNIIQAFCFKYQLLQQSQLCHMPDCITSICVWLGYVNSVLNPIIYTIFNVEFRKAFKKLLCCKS

Legend:
[1] = target: Sm5HTR (Schistosoma mansoni, UniProt G4V5G4); test: cAMP luminescence (GloSensor) assay, HEK293 cells expressing Sm5HTR; format: cell-based, S. mansoni; details: luminescent cAMP signal, agonist
[2] = target: SmD2 (Schistosoma mansoni, UniProt G4LUJ1); test: cell-based; details: HEK293, read-out: inhibition of EPN-evoked luminescence

SMILES | EC50 [1] | inhibition at 10 µM [2]
NCCc1c[nH]c2ccc(O)cc12 [5-HT, serotonin] | 1.46 ± 0.13 µM | 
O=C1CCc2ccc(OCCCCN3CCN(c4cccc(Cl)c4Cl)CC3)cc2N1 [Aripiprazole] |  | ≥ 50%
